The values that follow come from PubChem BioAssay AID651819 (National Center for Advancing Translational Sciences (NCATS), 2012).

The list shows a part of the results, in another mix than the full data. Activity calls are given as the source filed them. Rule as the data show it: active = activity change below about -30%; inactive = the rest.
% is scaled to controls: 0 for no effect and ±100 for the full control effect.

In this test the test system is cytosolic chaperonin (CCT/TRiC complex). As to the kind of experiment: High-Throughput Screening for Modulators of Cytosolic Chaperonin Activity. The settings on record: purified chaperonin ATPase assay, HTRF ADP detection, 30 min; active compounds read low. The source says:
The eukaryotic chaperonin named TRiC (for TCP-1 ring complex), also called CCT (for chaperonin containing TCP1), is an essential and conserved chaperone required for the folding and activation of 10-15% of the proteins encoded by the human genome. […] Despite its central role in cellular folding, little is known about TRiC mechanism and mode of substrate binding. Currently, no specific TRiC inhibitors are available. Given the early promise of other chaperone-directed inhibitors as cancer therapeutics (e.g. HSP90 inhibitors), inhibitors of TRiC activity may also selectively target transformed cells and have potential use as therapeutics for cancer.
To this end, a miniaturized assay was developed to screen against the Molecular Libraries Small Molecule Repository (MLSMR).
NIH Chemical Genomics Center [NCGC]
NIH Molecular Libraries Probe Centers Network [MLPCN]
Assay Submitter (PI): Judith Frydman, Stanford University
1.5 uL/well TRiC enzyme suspended in buffer (30 mM TRIS pH7.4, 100 mM KCl, 5 mM MgCl2, 1 mM DTT) was added with BioRAPTR FRD dispenser at 40 nM or 20 nM (based on the enzymatic activity of used batches) final concentration to a white solid bottom medium binding 1536-well plate (Greiner Bio-One, Monroe, NC), and quickly spanned down. 23 nl/well of compound solutions in DMSO were added with a pintool transfer (Kalypsis, San Diego, CA) at a single 76 uM final concentration. Next, 1.5 µl/well ATP was dispensed with BioraptR at 10 uM final concentration after which the plates were incubated at 37 deg C for 30 min. HTRF(R) Transcreener(R) ADP (Cisbio US, Bedford, MA) detection reagents were prepared accordingly to the protocol and dispensed into the plate (1.5 uL/well each), incubated for 30 min at ambient temperature. Then, the plates were read using Envision reader with excitation at 330nm and emission at 615nm (Eu(3)-Cryptate donor signal) and 665nm (d2 acceptor signal). The ratio of […] was calculated for each well.
Regarding `O=C(OCCN1CCN(CCOCc2ccccc2)CC1)C(O)(c1ccccc1)c1ccccc1`, the activity change was inactive: -1.29%.

On to `COc1ccc(OP(C)(=O)Nc2ccc(SC(F)(F)F)cc2)cc1` (stereo not given), for which the activity change was inactive: -1.84%.

On to `CCOC(=O)c1ccc(NP(C)(=O)Oc2ccc(F)cc2)cc1` (stereo not given), for which the activity change was inactive: -0.3%.

In the case of `CCCCCOc1ccc(NP(C)(=O)Oc2ccc(Cl)cc2Cl)cc1` (stereo not given), the activity change was inactive: 2.21%.

For `CP(=O)(Nc1ccccc1)Oc1ccc(F)cc1` (stereo not given), the activity change is inactive: 1.46%.

Regarding `CCN(CC)CCCOC(=O)C(O)(c1ccccc1)C1CCCCC1` (stereo not given), the activity change is inactive: -0.577%.

`Cc1c([N+](=O)[O-])cc([N+](=O)[O-])c(Br)c1[N+](=O)[O-]`: the activity change is inactive: -28.2%.

`COc1ccc(NP(C)(=O)Oc2ccccc2OC)cc1` (stereo not given): the activity change was inactive: -3.99%.

On to `CN(C)CCOC(=O)C(O)(c1ccccc1)C1CCCCC1` (stereo not given), for which the activity change is inactive: -0.19%.

On to `COc1ccc(OP(C)(=O)Nc2cccc(Br)c2)cc1` (stereo not given), for which the activity change was inactive: -1.52%.

Turning to `Cc1c(C(c2ccc3c(c2)OCO3)c2c(C)n(C)n(-c3ccccc3)c2=O)c(=O)n(-c2ccccc2)n1C.O=[N+]([O-])c1cc([N+](=O)[O-])c(O)c([N+](=O)[O-])c1`, the activity change is inactive: -0.549%.

As to `Cc1cc(-c2cccc3ccccc23)c(C)cn1.O=[N+]([O-])c1cc([N+](=O)[O-])c(O)c([N+](=O)[O-])c1`, the activity change is inactive: -4.7%.

For the molecule `O=[N+]([O-])c1ccc(OP2(=O)COCCO2)cc1` (stereo not given), the activity change is inactive: 0.17%.

With `CCOP(C)(=S)SCC(=O)NC(C)(CC)C(=O)O` (stereo not given), the activity change is inactive: 1.63%.

Regarding `CP(=O)(Nc1ccc(SC(F)(F)F)cc1)Oc1ccc(F)cc1` (stereo not given), the activity change is inactive: 1.03%.

In the case of `O=[N+]([O-])c1cc([N+](=O)[O-])c(C(F)(F)F)c([N+](=O)[O-])c1O`, the activity change was inactive: -1.04%.

On to `Cc1ccccc1NP(C)(=O)Nc1ccccc1C`, for which the activity change was inactive: -1.33%.

As for `CP(=O)(Nc1ccc2c(c1)OCCO2)Oc1ccccc1` (stereo not given), the activity change is inactive: 0.733%.

As to `CCc1ccc(OP(C)(=O)Nc2cccnc2)cc1` (stereo not given), the activity change was inactive: 0.487%.

Turning to `CP(=O)(Oc1ccccc1)N1CCOC1=O` (stereo not given), the activity change is inactive: -2.91%.

As to `O=C(OCCCN1CCCC1)C(O)(c1ccccc1)C1CCCCC1` (stereo not given), the activity change was inactive: -0.927%.

In the case of `COc1ccccc1OP(C)(=O)Nc1c(C)n(C)n(-c2ccccc2)c1=O` (stereo not given), the activity change is inactive: -2.94%.

Turning to `COc1ccc(OP(C)(=O)Nc2ccc(Br)cc2)cc1` (stereo not given), the activity change was inactive: -0.528%.

On to `CCN(CC)CC(O)COC(=O)C(O)(c1ccccc1)C1CCCCC1` (stereo not given), for which the activity change was inactive: 0.548%.

With `CN(C)C(=O)c1c([N+](=O)[O-])cc([N+](=O)[O-])cc1[N+](=O)[O-]`, the activity change was inactive: 0.811%.

`CP(=O)(Nc1ccc(Cl)cc1)Oc1ccc(F)cc1` (stereo not given): the activity change is inactive: 0.724%.

In the case of `CC(C)(C)c1ccc(OP(C)(=O)O)cc1`, the activity change was inactive: 0.583%.

With `COc1ccccc1OP(C)(=O)Nc1ccccc1Br` (stereo not given), the activity change was inactive: 1.47%.

Take `CP(=O)(OC12CC3CC(CC(C3)C1)C2)OC12CC3CC(CC(C3)C1)C2`: the activity change was inactive: -0.326%.

For the molecule `CCOC(=O)c1ccc(NP(C)(=O)Oc2ccc(Cl)cc2)cc1` (stereo not given), the activity change was inactive: 0.638%.

As for `Nc1ccc2c(ccc3cccnc32)n1.O=[N+]([O-])c1cc([N+](=O)[O-])c(O)c([N+](=O)[O-])c1`, the activity change is inactive: -2.51%.

Consider `COc1ccc(OP(C)(=O)Nc2ccccc2Br)cc1` (stereo not given), for which the activity change was inactive: 2.71%.

As for `COc1ccccc1OP(C)(=O)Nc1ccc(C)c(C)c1` (stereo not given), the activity change is inactive: -0.534%.

Turning to `Cc1cc(C)cc(OP(C)(=O)Nc2cccc(C(F)(F)F)c2)c1` (stereo not given), the activity change is inactive: 0.971%.

`CP(=O)(OCCOc1ccccc1)OCCOc1ccccc1`: the activity change is inactive: -2.51%.

Regarding `CCCCCCCCCCCCCCCC1C[N+](C)(C)CCOP(C)(=O)O1` (stereo not given), the activity change was inactive: -3.9%.

For `CP(=O)(Nc1ccc(Cl)cc1Cl)Oc1ccccc1` (stereo not given), the activity change was inactive: 0.346%.

With `CN(C)CCOC(=O)C(O)(c1ccccc1)C1CCCC1` (stereo not given), the activity change was inactive: -1.2%.

With `COc1ccc(OP(C)(=O)Nc2ccccn2)cc1` (stereo not given), the activity change was inactive: -2.12%.

As for `COc1ccccc1OP(C)(=O)Nc1ccc(Br)cc1` (stereo not given), the activity change was inactive: -0.547%.

Regarding `CCc1ccc(OP(C)(=O)O)cc1`, the activity change was inactive: 0.0386%.

For the molecule `COc1ccccc1OP(C)(=O)Nc1ccc(C)cc1C` (stereo not given), the activity change is inactive: -1.9%.

As to `CP(=O)(Nc1ccccn1)Oc1ccccc1` (stereo not given), the activity change was inactive: -1.09%.

For the molecule `O=[N+]([O-])c1cc([N+](=O)[O-])c(Nc2ccccn2)c([N+](=O)[O-])c1`, the activity change is inactive: -5.89%.

As to `Cc1c(NP(C)(=O)Oc2ccc(C(C)C)cc2)c(=O)n(-c2ccccc2)n1C` (stereo not given), the activity change was inactive: -1.03%.
